{"sequences": {"note": "Chains of the proteins cited; added tags and fusions are not shown. Residues count along the entry.", "UniProt P07949, 29-1114 limits assumed": "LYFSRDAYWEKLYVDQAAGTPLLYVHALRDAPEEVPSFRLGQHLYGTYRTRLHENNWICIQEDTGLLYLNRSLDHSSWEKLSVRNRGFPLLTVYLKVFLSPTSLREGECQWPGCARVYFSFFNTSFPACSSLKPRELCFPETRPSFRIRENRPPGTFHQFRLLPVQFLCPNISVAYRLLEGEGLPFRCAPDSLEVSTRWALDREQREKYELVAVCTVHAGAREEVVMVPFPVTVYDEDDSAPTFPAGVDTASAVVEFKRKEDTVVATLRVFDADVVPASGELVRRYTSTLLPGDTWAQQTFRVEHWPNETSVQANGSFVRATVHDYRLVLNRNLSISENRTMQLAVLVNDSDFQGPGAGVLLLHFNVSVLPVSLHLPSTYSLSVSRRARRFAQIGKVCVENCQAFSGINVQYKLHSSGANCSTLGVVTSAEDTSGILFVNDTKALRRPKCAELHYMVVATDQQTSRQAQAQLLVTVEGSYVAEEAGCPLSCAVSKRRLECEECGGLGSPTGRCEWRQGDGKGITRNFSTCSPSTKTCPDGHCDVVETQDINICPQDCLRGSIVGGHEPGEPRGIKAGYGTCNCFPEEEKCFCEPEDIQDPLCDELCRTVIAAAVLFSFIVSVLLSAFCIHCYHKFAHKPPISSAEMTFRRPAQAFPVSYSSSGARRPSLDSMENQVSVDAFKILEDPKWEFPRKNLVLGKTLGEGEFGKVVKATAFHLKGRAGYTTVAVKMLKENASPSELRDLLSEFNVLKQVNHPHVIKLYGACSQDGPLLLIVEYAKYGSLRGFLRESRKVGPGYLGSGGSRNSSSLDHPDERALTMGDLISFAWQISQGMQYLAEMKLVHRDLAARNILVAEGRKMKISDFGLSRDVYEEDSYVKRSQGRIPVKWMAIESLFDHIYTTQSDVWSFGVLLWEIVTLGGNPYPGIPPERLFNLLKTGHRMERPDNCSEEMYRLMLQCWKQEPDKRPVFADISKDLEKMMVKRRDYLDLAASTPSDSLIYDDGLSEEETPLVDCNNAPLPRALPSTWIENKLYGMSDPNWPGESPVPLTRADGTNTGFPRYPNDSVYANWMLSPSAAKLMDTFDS"}, "source": "patent US10112942B2", "about": "“Substituted pyrazolo[1,5-A]pyridine compounds as RET kinase inhibitors” (Array BioPharma, Inc., priority 2016, dated 2018)", "target": "Kif5b-RET fusion protein in HEK-293 cells (Homo sapiens, UniProt P07949)", "experiment": "cell-based", "note": "pIC50: −log10 of the molar value."}
{"compound": "CC(C)(O)COc1cc(-c2ccc(N3CC4CC(C3)N4Cc3cnccn3)nc2)c2c(C#N)cnn2c1", "note": "[Example 336, 6-(2-hydroxy-2-methylpropoxy)-4-(6-(6-(pyrazin-2-ylmethyl)-3,6-diazabicyclo[3.1.1]heptan-3-yl)pyridin-3-yl)pyrazolo[1,5-a]pyridine-3-carbonitrile]", "values": [{"measurement": "pIC50", "result": 6.79}]}
